# Measured affinities in a library of Ab-14 heavy chain variants

All variants were tested on one target, the spike HR2 peptide PDVDLGDISGINAS (SARS-CoV-2).

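Phage display of a naive human antibody library on the peptide gave the parent. Variants in AAYL49 differ from the parent at up to three CDR positions; double and triple changes were sampled at random. AlphaSeq pools MATa yeast showing the antibodies with MATalpha yeast showing the peptide. After mating in shaken culture at 30 °C for 16 h, diploids were selected and their barcode pairs sequenced. The ratio of observed to expected reads was calibrated, replicate by replicate, on BCL2-family standards whose Kd was known from biolayer interferometry. The assay was run in three technical replicates.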

Ab-14 is the parent antibody, in scFv form: VH, then a 15-residue (Gly4Ser)3 linker, then VL. The light chain is unchanged in all variants.
VH: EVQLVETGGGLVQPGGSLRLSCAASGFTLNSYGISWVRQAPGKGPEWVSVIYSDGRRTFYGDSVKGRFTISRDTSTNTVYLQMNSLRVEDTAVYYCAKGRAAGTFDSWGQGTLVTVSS
VL: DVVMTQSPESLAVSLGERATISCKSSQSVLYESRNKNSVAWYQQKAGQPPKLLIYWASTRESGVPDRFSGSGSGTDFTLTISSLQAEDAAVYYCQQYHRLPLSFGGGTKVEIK

The parent's heavy chain CDRs are GFTLNSYGIS, VIYSDGRRTFYGDSVK, GRAAGTFDS; each variant's own CDRs replace them letter for letter.
Affinities are written as log10 Kd with Kd in nM; a lower number is a better binder.
A mean of the replicates is given; it leaves out those without a signal.
"ND" means that the variant was in the library but no mating with the target was seen in that replicate; the authors take this as a sign of poor binding, and no number exists.

CDR-H1,CDR-H2,CDR-H3,"replicates, log10 nM","log10 Kd (nM), mean",signal with controls
GFTLNSYGIS,VIYSDFRRTAYGDSVK,GRAAGTFDS,5.38 / ND / ND,5.38,1/9 (2.45)
GFTLNSYGRS,VIYSDGRRTFYGESVK,GRAAGTSDS,ND / ND / ND,ND,0/9
GFTLNSYGIS,VIYSDGRRTFAGDSVK,GRAAGTFEI,2.82 / ND / ND,2.82,0/9
GFTINSYGIS,VIYSGGRRTFYGDSVK,PRAAGTFDS,ND / ND / ND,ND,0/9
GFTLNWYGIS,VIYSDGRRTFYGDSVK,GGAAGTHDS,ND / ND / 5.89,5.89,2/9 (4.85)
GFTLNSYGIS,VIISDGRRTFYGDSVK,GYAAQTFDS,ND / ND / ND,ND,0/9
GFTLNSYGIS,VIYSDGRRTFYGDPVK,GRCAGTFDS,1.77 / 2.09 / 2.52,2.13,0/9
GFDLNSYGIS,VIYSDGRKTFYGDSVK,RRAAGTFDS,2.75 / ND / ND,2.75,0/9
GFFKNSYGIS,VIYSDGSRTFYGDSVK,GRAAGTFDS,ND / ND / ND,ND,0/9
GFTLNSYGIS,VIRSDGRRTWYGDSVK,GRAASTFDS,3.09 / 4.60 / 4.38,4.02,3/9 (3.23)
GFTLNSYGIS,VIGRDGRRTFYGDSVK,GRATGTFDS,ND / 3.73 / 3.89,3.81,4/9 (4.39)
GFTLNSYGIS,VWYSDGRRTFYTDSVK,GRASGTFDS,ND / ND / ND,ND,0/9
GFIENSYGIS,VIYSDGRRTFYGDSVK,GRAAGTFDL,ND / ND / ND,ND,0/9
GFTLSSYGIS,VIYSDGRRTSYGDSVK,GRAAGQFDS,ND / ND / ND,ND,1/9 (4.92)
GFTLNSYGIS,VIYSDGRRTFYKDSVR,GDAAGTFDS,0.14 / 0.43 / 0.25,0.27,1/9 (6.09)
GFTLNSYGIS,VIYSDGWRTFYGDSVK,GRASGTFDW,6.58 / 4.07 / 5.14,5.26,6/9 (4.70)
GFTLNSYGIS,VIYSDGRRTFYGDDVK,GRAADIFDS,1.98 / 1.90 / 1.70,1.86,2/9 (4.21)
GKTLNSYGIS,VIYSDGYRTAYGDSVK,GRAAGTFDS,0.83 / 1.14 / 0.91,0.96,2/9 (4.53)
GGNLNSYGPS,VIYSDGRRTFYGDSVK,GRAAGTFDS,ND / ND / 3.98,3.98,0/9
GFVLNSYGIS,VMYSDGRYTFYGDSVK,GRAAGTFDS,ND / ND / ND,ND,1/9 (3.84)
GFTLNSYGIS,VIYSDGRRTFYGDSVK,IRATGTFDE,ND / 3.44 / ND,3.44,1/9 (5.00)
GFTLNEYGIS,VIYSDGRRTFYGDYVK,GRAAGTLDS,1.59 / 1.59 / 1.87,1.68,0/9
GFTLNSYGIS,VINSIGRRTFYGDSVC,GRAAGTFDS,ND / ND / ND,ND,0/9
GFPLNTYGIS,VIYSDGRRTFYGDSVK,GRAAGTIDS,1.66 / 1.55 / 1.54,1.58,4/9 (3.38)
GFTLNSYGIS,CIYSDGRRGFYGDSVK,GRAAGLFDS,ND / ND / ND,ND,2/9 (3.34)
GFTLNSGGIS,VIYSDGRRWFYGDMVK,GRAAGTFDS,ND / ND / ND,ND,0/9
GFTLNSYGIS,VIFSDGRRTFYGDSVK,GRAAGTFDS,1.35 / 1.36 / 1.13,1.28,1/9 (4.40)
GFTLNSYGIS,HIYSDGRRTFYGDSAH,GRAAGTFDS,ND / ND / ND,ND,3/9 (3.93)
GFTLNSYGIS,SIYSDGRRTFYGDSVK,FRAAGDFDS,ND / ND / ND,ND,1/9 (2.68)
GFTLNLYGIS,VIYSDGNRTFYGDSVK,GRFAGTFDS,2.49 / 1.47 / 1.84,1.93,0/9
GFTLQSYGIS,VIYSDGRRTFLIDSVK,GRAAGTFDS,2.66 / 2.69 / 2.81,2.72,5/9 (4.27)
GFTLNSYGHS,RIYSDGRRTFYGASVK,GRAAGTFDS,ND / ND / ND,ND,0/9
GFTLNSYGYS,VIYSDGRRTKYGDSVK,GRAAGTFDP,5.61 / ND / ND,5.61,1/9 (4.74)
GFTLNSYGID,VIYSDPRRTFYGDSVK,GRAAGTFDR,ND / ND / ND,ND,0/9
GFTLNSYVIS,VIYSDARRTFGGDSVK,GRAAGTFDS,ND / ND / ND,ND,0/9
GFTLNSMGIG,VMYSDGRRTFYGDSVK,GRAAGTFDS,ND / 4.83 / 5.03,4.93,4/9 (4.25)
GFTLNSYGDS,VIYSDGRDTFYGDSVK,GRAIGTFDS,ND / 2.89 / 5.22,4.06,3/9 (3.05)
GQTLNSYGYS,VIYSDGRRTFYGDSVK,GRAAHTFDS,3.46 / 3.81 / 5.55,4.27,5/9 (4.04)
GFTLNSDGIS,VIYSDGRRMFYGDSVK,GRAAGTFLS,5.11 / ND / 5.22,5.17,3/9 (3.84)
YFFLNSYGIS,VIYSHGRRTFYGDSVK,GRAAGTFDS,ND / ND / ND,ND,0/9
GFTLNSIGIS,VIYSDGRRTFYGTSVK,GPAAGTFDS,5.97 / ND / ND,5.97,5/9 (4.31)
GFTLNSYGMS,VIYSDGRRTFYGDSEK,GRAASTFDS,ND / 4.78 / 5.44,5.11,2/9 (3.91)

Three control strains display no target. For library AAYL49, 15% of the pairings with them gave a signal, with a median of 4.06 and one signal in twenty below 2.83, so weak values seen in few replicates may be background. The control count says in how many pairings with the empty strains this scFv gave a signal, with their mean in brackets.
In this assay the parent's reference entry averaged 0.65; its copy inside this library read 4.11 (one replicate of three).

From the AlphaSeq antibody data of Engelhart et al. 2022 (doi:10.1038/s41597-022-01779-4), copy in the FLAb collection.